The species named for experiment [1] is Bos taurus. Put plainly: Selectivity ratio of IC50 for bovine PDE3 to IC50 for bovine PDE4.
Experiment [2] in a line: Selectivity ratio of IC50 for PDE6 to IC50 for bovine PDE4.
Experiment [3] is filed under the species Bos taurus. Put plainly: Selectivity ratio of IC50 for bovine PDE5 to IC50 for bovine PDE4.

For the molecule `COc1ccc(/C=N/N(C)C(=O)c2ccccc2OC)cc1OC`, the Ratio IC50 in the experiment filed under Bos taurus [1] amounted to 26.
For `COc1cccc(C(=O)N(C)/N=C/c2ccc(OC)c(OC)c2)c1`, in the experiment filed under Bos taurus [1], the Ratio IC50 was 16.
Take `COc1ccc(/C=N/N(C)C(=O)c2ccc(O)cc2)cc1OC`: the Ratio IC50 in experiment [2] is 182.
Take `COc1ccc(/C=N/N(C)C(=O)c2ccc(Cl)cc2)cc1OC`: the Ratio IC50 in the experiment filed under Bos taurus [1] worked out at 45.
Turning to `COc1ccc(/C=N/N(C)C(=O)c2ccc(OC)c(OC)c2)cc1OC`, the Ratio IC50 in experiment [2] came to 59.
In the case of `COc1ccc(C(=O)N(C)/N=C/c2ccc(OC)c(OC)c2)cc1`, in the experiment filed under Bos taurus [3], the Ratio IC50 came out at 1.5.
Take `COc1ccc(/C=N/N(C)C(=O)c2ccccc2)cc1OC`: the Ratio IC50 in the experiment listed under Bos taurus [1] came out at 140.
The same measure, in the same setting: the value for `COc1ccc(/C=N/N(C)C(=O)c2ccc3c(c2)OCO3)cc1OC` was greater than 90.

These data come from ChEMBL document CHEMBL2169806, “Design, synthesis, and pharmacological evaluation of N-acylhydrazones and novel conformationally constrained compounds as selective and potent orally active phosphodiesterase-4 inhibitors” (J Med Chem, 2012).
